According to patent publication US12042560B2, “Liposome composition” (Eisai R&D Management Co., Ltd., priority 2009, dated 2024):

Test: physchem

## C=C1C[C@@H]2CC[C@@]34C[C@H]5O[C@H]6[C@@H](O3)[C@H]3O[C@H](CC[C@@H]3O[C@H]6[C@H]5O4)CC(=O)C[C@@H]3[C@@H](OC)[C@@H](C[C@H](O)CN)O[C@H]3C[C@H]3O[C@@H](CC[C@@H]1O2)C[C@@H](C)C3=C [Eribulin mesylate, eribulin mesylate]
  pKa: 9.6

Structures can show the parent of a compound that is named as a salt.
